This is an account of results in patent US20250049817A1, “JAK INHIBITOR WITH A VITAMIN D ANALOG FOR TREATMENT OF SKIN DISEASES” (INCYTE CORPORATION, priority 2020, published 2025).

Structures are written as SMILES.

Test [1] deals with Th1 or Th17 stimulated human skin. Particulars: topical dosing, aqueous solutions, ruxolitinib 0.75% and 1.5%, 24 hours post stimulation.
Test [2] relates to IL-22 production in human T-cells. Particulars: read-out: IC50 for inhibiting IL-23 stimulated IL-22 production; cited from earlier work.
A further test has as its system STAT3 phosphorylation. The following applies: read-out: IC50 in TPO induced STAT3 phosphorylation assay; human whole blood; cited from earlier work.

For `N#CC[C@H](C1CCCC1)n1cc(-c2ncnc3[nH]ccc23)cn1` [ruxolitinib], in test [1], the “gene expression of CXCL10” value is “strong effect on gene expression” and the “gene expression of IL-22” value is reported as “strong effect on gene expression”. The 50% inhibitory concentration (IC50) in test [2] is 50 nM. The 50% inhibitory concentration (IC50) with STAT3 phosphorylation was 281 nM.

As a reminder, the IC50 is the concentration that gives 50% inhibition.
